Measurements as given in ChEMBL document CHEMBL1126621 (J Med Chem, 1993).

Assay: Relative affinity for delta and kappa opioid receptors of guinea pig brain homogenate
Conditions: Cavia porcellus

Compound `CC[C@H](C)[C@H]1NC(=O)[C@H](CCCN=C(N)N)NC(=O)[C@@H](CCCN=C(N)N)NC(=O)[C@H](NC(=O)[C@@H]2Cc3ccccc3CN2C(=O)CNC(=O)CNC(=O)[C@@H](N)Cc2ccc(O)cc2)CSSC[C@H](C(=O)O)NC(=O)[C@H]2CCCN2C(=O)[C@H](CCCN=C(N)N)NC1=O` has a Selectivity of 3.5.
